Data on two substances can be found in patent publication US20030236202A1, “Natural products and derivatives thereof for protection against neurodegenerative diseases” (priority 2002, published 2003).

The nature of the series: Absorption of hydroxytyrosol and derivatives: hydroxytyrosol in plasma after oral administration (GC-MS). The following applies: mice, amounts equivalent to 10 mg hydroxytyrosol. An excerpt: Plasma from each blood sample was subsequently extracted with ethyl acetate, and subjected to analysis by gas chromatography in combination with mass spectrometry.

Regarding 2-(3,4-Dihydroxyphenyl) ethyl acetate, the “hydroxytyrosol in plasma, 15 min.” value was 0.68 mg/L and the “Hydroxytyrosol in plasma, 60 min.” value amounted to 0.06 mg/L.
The matching figures for “2-(3,4-Distearyloxyphenyl) ethyl stearate”: “not detected” and 0.44 mg/L.
